Test results reported in US7265118B2, “Regulation of substrate activity” (Point Therapeutics, Inc., priority 1998, dated 2007).
Read-outs that look alike come from different tables or passages of the source.

Protein sequences, listed by entry. Tags and fused reporters are not part of them. Residues count along the entry.
UniProt P28843, 37-760 limits assumed: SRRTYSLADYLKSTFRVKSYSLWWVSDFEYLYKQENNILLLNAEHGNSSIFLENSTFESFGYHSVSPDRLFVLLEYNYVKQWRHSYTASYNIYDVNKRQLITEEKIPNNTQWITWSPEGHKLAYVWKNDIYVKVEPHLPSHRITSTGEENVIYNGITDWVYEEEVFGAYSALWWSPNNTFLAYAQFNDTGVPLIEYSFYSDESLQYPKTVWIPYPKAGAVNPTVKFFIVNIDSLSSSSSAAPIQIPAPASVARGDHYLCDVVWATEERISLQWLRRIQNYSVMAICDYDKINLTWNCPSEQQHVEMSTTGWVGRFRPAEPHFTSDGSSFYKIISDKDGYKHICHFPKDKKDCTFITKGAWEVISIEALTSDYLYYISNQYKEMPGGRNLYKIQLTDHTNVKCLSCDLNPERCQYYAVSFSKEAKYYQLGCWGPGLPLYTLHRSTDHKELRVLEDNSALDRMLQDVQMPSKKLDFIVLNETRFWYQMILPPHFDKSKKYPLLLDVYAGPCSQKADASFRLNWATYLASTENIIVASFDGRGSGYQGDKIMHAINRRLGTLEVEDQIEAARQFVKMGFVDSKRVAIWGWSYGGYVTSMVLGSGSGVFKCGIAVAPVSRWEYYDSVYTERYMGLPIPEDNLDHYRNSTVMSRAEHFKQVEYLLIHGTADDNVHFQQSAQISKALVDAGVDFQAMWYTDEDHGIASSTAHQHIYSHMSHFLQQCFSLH

Biological target: serum DPP-IV (Mus musculus, UniProt P28843)
Conditions: mice, gavage, blood two hours post administration

`CC(C)C(N)C(=O)N1CCCC1B(O)O` (stereo not drawn) [Val-boroPro] was tested, and the “inhibition of serum DPP-IV activity” value (dose 2 μg) was “Total inhibition”, the “inhibition of serum DPP-IV activity” value (dose 5 μg) was “Total inhibition” and the “inhibition of serum DPP-IV activity” value (doses below 2 μg) was “dose dependent decrease of DPP-IV inhibition”.
